We go through four molecules from patent US20260258035A1, “FIVE-MEMBERED AND SIX-MEMBERED NITROGEN-CONTAINING COMPOUND, AND INTERMEDIATE, PREPARATION METHOD AND USE THEREOF” (HANGZHOU SYNRX THERAPEUTICS BIOMEDICAL TECHNOLOGY CO., LTD., priority 2022, published 2026).

Protein sequences, listed by entry. Tags and fused reporters are not part of them.
UniProt Q86W56, whole entry: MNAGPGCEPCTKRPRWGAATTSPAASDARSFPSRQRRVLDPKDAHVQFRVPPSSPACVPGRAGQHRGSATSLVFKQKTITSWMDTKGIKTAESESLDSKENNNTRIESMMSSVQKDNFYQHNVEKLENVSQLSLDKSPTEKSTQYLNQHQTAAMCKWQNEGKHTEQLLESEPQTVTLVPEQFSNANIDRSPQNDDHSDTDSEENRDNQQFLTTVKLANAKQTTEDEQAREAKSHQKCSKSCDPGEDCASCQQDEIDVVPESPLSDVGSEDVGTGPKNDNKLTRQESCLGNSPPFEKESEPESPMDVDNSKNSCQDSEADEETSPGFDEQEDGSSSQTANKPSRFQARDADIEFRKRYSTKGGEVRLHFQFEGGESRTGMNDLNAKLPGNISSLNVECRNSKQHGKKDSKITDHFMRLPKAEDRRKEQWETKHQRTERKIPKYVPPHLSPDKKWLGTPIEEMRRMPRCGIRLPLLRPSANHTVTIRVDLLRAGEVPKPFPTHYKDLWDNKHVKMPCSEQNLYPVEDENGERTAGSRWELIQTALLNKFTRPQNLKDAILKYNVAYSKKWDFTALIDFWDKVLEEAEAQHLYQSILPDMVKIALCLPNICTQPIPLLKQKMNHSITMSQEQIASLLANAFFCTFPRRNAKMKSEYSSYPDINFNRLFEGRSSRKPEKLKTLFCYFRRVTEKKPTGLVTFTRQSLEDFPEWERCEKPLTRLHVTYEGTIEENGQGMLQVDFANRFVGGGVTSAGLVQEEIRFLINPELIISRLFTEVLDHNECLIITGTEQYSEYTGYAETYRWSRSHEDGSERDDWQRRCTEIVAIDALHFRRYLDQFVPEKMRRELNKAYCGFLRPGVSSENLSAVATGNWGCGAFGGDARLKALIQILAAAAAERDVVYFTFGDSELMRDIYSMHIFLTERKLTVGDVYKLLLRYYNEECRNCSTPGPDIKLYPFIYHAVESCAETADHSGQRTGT
UniProt O75469, whole entry: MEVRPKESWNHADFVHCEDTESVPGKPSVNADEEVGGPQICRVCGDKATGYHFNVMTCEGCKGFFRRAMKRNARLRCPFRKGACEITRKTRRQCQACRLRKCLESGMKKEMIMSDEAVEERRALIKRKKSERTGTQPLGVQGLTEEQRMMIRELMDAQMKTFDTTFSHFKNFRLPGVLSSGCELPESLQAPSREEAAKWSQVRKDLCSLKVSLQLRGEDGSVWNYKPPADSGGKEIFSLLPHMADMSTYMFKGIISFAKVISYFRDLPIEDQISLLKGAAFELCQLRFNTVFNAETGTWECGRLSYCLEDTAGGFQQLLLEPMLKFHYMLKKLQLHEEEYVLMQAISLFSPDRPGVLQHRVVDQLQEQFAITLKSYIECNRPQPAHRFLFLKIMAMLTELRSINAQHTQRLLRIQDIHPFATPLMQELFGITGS

The term IC50 denotes the concentration that gives 50% inhibition.

In one data set the test system is HCC1806. In words: Cell viability assay (CellTiter-Glo). The class given is cell-based, Human. The conditions noted are these: read-out: IC50 (nM) in cell viability assay. The method, then: • 1) HCC1806 (Nanjing Cobioer, ATCC cell bank, 200 cells/well) was plated in the 96-well plate, and incubated for 24 h in a CO2 (5%) incubator at 37° C. to allow for complete adherence of the cells; • 2) media (100 L/well) containing the compounds (final concentrations of compounds: 30000 nM, 10000 nM, 3000 nM, 1000 nM, 300 nM, 100 nM, 30 nM, 10 nM, 3 nM, 1 nM, 0 nM) were added to the cells, and then, incubated for 7 days in the C02 (50%) incubator at 37° C.; • 3) the culture plate containing the cells was held at room temperature for 30 min to equilibrate the plate and its contents to room temperature; • 4) CellTiter-Glo (Promega: V9101) reagent (100 μL/well) was added to each well of cells, and the contents were mixed on an orbital shaker for 2 minutes; • 5) the plate was incubated at room temperature for 10 min to stabilize the signal, and detected by the microplate reader (Thermo: VarioskanLUX); • 6) data were analyzed using GraphPad software to determine the IC50.
In general terms: In ATP-based viability assays light output follows the ATP content of the culture.

A further data set concerns the target PARG (Homo sapiens, UniProt Q86W56). In words: Biochemical assay (PARG, TFMU-ADPr substrate). Conditions: read-out: IC50 (nM) in biochemical assay.
In data set [1] the test system is Human breast squamous carcinoma cells HCC1806. As to the kind of experiment: Cell function assay (In-Cell Western, PAR/pADPr after MMS). The class given is cell-based. The conditions noted are these: read-out: IC50 (nM) in cell function assay. How it is done: 2. Cell Function Assay (In-Cell Western)
• 1) Human breast squamous carcinoma cells HCC1806 (ATCC) were seeded to the 384-well plate (Corning, #3764) at 20,000 cells/well, incubated for 24 h in a CO2 (5%) incubator at 37° C. to allow for complete adherence of the cells; • 2) 120 nL compounds or DMSO were added to the 384-well plate by Echo 550 (LABCYTE, #550) (final concentrations of compounds: 30000 nM, 10000 nM, 3000 nM, 1000 nM, 300 nM, 100 nM, 30 nM, 10 nM, 3 nM, 1 nM, 0 nM), and then the cells were incubated for 1 h in a CO2 (5%) incubator at 37° C.; • 3) 40 nL MMS (methyl mesylate, Sigma, #129925)(final concentration: 0.5 mM) was added to the plate by Echo 550, and the cells were treated for 1 h in a CO2 (5%) incubator at 37° C. 4) the culture medium was discarded, and the cells were fixed with 50 μL/well 3.7% paraformaldehyde for 20 min at room temperature; • 5) the cells were washed three times with PBST (136 mM NaCl, 2.6 mM KCl, 8 mM Na2HPO4, 2 mM KH2PO4, 0.05% Tween-20) buffer, each time 5 min; • 6) after fixation, the cells were permeabilized with 50 µL/well 0.3% Triton X-100 for 5 min at room temperature; • 7) the cells were washed three times with PBST (136 mM NaCl, 2.6 mM KCl, 8 mM Na2HPO4, 2 mM KH2PO4, 0.05% Tween-20) buffer, each time 5 min; • 8) after cell permeabilization, the cells were blocked with 50 μL/well 5% BSA for 90 min at room temperature; • 9) after cell blocking, the PAR/pADPr (R&D, #4335-MC-100) antibody (diluted 1:2000) was added at 25 µL/well to the cells and then incubated for 16 h at 4° C.; • 10) the cells were washed four times with PBST (136 mM NaCl, 2.6 mM KCl, 8 mM Na2HPO4, 2 mM KH2PO4, 0.05% Tween-20) buffer, each time 5 min; • 11) 800CW goat anti-mouse (diluted 1:200) (LiCRO, #926-32210) and DRAQ5 (diluted 1:200) (Cell Signaling Technology, #4084L) were added at 25 µL/well to the cells, and then incubated for 60 minutes at room temperature; • 12) the cells were washed four times with PBST (136 mM NaCl, 2.6 mM KCl, 8 mM Na2HPO4, 2 mM KH2PO4, 0.05% Tween-20) buffer, each time 5 min; • 13) PBS (136 mM NaCl, 2.6 mM KCl, 8 mM Na2HPO4, 2 mM KH2PO4) buffer was added to the cells, and Li-Cor Bioscience scanning was used for signal detection; • 14) the data were analyzed using GraphPad software to determine the IC50.

The target of a further data set is PXR (Homo sapiens, UniProt O75469). In words: PXR assay (DPX2 luciferase reporter cells). The conditions noted are these: 24 h. How it is done:
1) Information of Cell Line
DPX2 (HepG2 cells stably transfected with PXR and luciferase reporter) cells were purchased from Puracyp Inc (Carlsbad, CA).
2) Experimental Procedures a) Reagents and Consumables
The DPX2 cells were cultured in the growth medium containing 1000 fetal bovine serum. The DPX2 cells in a T-75 flask were cultured in the […] incubator at 37° C. with 950% relative humidity, and digested when the cells grew to cover 80-90% of the bottom of the flask.
The surface layer of the T-75 cultured cells was washed with 10 mL of PBS; PBS was pipetted; 3-5 mL of tryp sin was added; the cells were digested at 37° C. for 5 minutes or until the cells were digested to be suspended; and excessive medium containing fetal bovine serum was added to stop trypsinization. […]
d) Quantitative Detection with PXR Activation
After 24 hours of dosing, the culture could be quantitatively detected with PXR activation. […] The cell culture plate was taken out from the incubator, and cooled slightly to room temperature; and the fluorescence value was determined with a fully automatic quantitative microplate reader, with the excitation light of 400 nm and the emission light of 505 nm. The ONE-Glo reagent was poured into the loading slot, with 25 μL per well, and the resulting mixture was gently mixed in the plate, and incubated at room temperature for 5 minutes to determine the luminescence value.
A general note: In a reporter assay the amount or activity of a reporter protein is the signal.

[2] abbreviates: 4 nM PARG, 66.2 uM TFMU-ADPr, 3 min at room temperature.
[3] abbreviates: HCC1806, In-Cell Western, MMS treatment.
Setting [4] is: HCC1806, compound 1 h then 0.5 mM MMS 1 h, PAR/pADPr antibody, In-Cell Western.

Where “and” joins values, the source holds several entries; their conditions need not be identical. Equal entries are not always repeated. Where two headings read alike, the source gives them in different places.

`CC(C)C(=O)N1CCN(c2cc(S(=O)(=O)NC3(C#N)CC3)cn3c(-c4nnc(C(F)F)s4)cnc23)CC1`: the IC50 in the data set on HCC1806 was 500 to 5000 nM and 456 nM; at PARG (setting [2]), less than 100 nM; at PARG (PARG, TFMU-ADPr substrate), 1.99 nM; in data set [1] (setting [3]), 22.4 nM; in data set [1] (setting [4]), less than 100 nM.
For `CC1(NS(=O)(=O)c2cc(N3CCN4C(=O)CCC4C3)c3cnc(-c4nnc(C(F)F)s4)n3c2)COC1` (stereo not shown), the IC50 in the data set with HCC1806 (HCC1806, 7 days, CellTiter-Glo) was 593 nM; at PARG (PARG, TFMU-ADPr substrate), 6.23 nM. In addition, the “PXR Activation @30 uM (Fold)” value at PXR turned out to be 2.2 Fold. Besides, the “PXR Activation @30 uM (% Ctrl)” value at PXR (positive control rifampicin) came to 12 % Ctrl.
Regarding `CC1(C(=O)N2CCN(c3cc(S(=O)(=O)NC4(C#N)CC4)cn4c(-c5nnc(C(F)F)s5)ncc34)C[C@H]2CF)CC1`, the IC50 with HCC1806 (HCC1806, 7 days, CellTiter-Glo) was 500 to 5000 nM and 990 nM; at PARG (setting [2]), less than 100 nM; at PARG (PARG, TFMU-ADPr substrate) it was 13.2 nM; in data set [1] (setting [3]) it was 2.89 nM; in data set [1] (setting [4]), less than 100 nM.
For the molecule `Cn1cnc2c(-c3cc(S(=O)(=O)NC4(C#N)CC4)cn4c(-c5nnc(C(F)F)s5)ncc34)cccc21`, the IC50 is less than 100 nM on PARG (setting [2]) and 45.6 nM on PARG (PARG, TFMU-ADPr substrate).
